Results from US20120121591A1 (priority 2009, published 2012).

Protein sequences, listed by entry. Tags and fused reporters are not part of them.
UniProt P22001, whole entry: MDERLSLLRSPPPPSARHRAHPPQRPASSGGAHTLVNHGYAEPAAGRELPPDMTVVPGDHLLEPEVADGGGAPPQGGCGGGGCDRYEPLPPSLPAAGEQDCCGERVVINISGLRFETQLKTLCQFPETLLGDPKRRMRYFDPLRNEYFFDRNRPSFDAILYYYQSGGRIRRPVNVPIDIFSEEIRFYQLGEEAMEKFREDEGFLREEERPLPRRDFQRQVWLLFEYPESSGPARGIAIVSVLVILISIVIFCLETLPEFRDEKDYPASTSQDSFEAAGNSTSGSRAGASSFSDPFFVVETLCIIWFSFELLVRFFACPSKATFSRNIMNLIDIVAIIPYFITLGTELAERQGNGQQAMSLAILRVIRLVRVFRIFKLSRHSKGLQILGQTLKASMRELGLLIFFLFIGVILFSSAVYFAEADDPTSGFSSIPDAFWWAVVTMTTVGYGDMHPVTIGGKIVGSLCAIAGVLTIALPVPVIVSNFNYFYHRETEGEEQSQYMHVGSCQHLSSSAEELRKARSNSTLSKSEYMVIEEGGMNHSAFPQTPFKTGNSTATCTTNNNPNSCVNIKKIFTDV

These compounds were tested against hKv1.3 (Homo sapiens, UniProt P22001) (assay: cell-based). Details: Kv1.3 (IWQ) IC50 (nM, Avg).

`CC[C@H](C)[C@@H]1NC(=O)[C@H]([C@@H](C)O)NC(=O)[C@H](CC(=O)O)NC(=O)[C@H](CCCCN)NC(=O)[C@@H](NC(=O)[C@H](CO)NC(=O)[C@@H](N)CCCNC(=N)N)CSSC[C@@H](C(=O)O)NC(=O)[C@H]([C@@H](C)O)NC(=O)CNC(=O)[C@@H]2CSSC[C@@H]3NC(=O)[C@H](CCC(N)=O)NC(=O)[C@H](Cc4ccccc4)NC(=O)[C@H](C)NC(=O)[C@H]([C@@H](C)O)NC(=O)[C@H](CSSC[C@H](NC(=O)[C@H](Cc4ccccc4)NC(=O)[C@H](CO)NC(=O)[C@H](CC(C)C)NC(=O)[C@H](CCCNC(=N)N)NC(=O)[C@H](Cc4ccc(O)cc4)NC(=O)[C@H](CCCCN)NC(=O)[C@H](CCSC)NC(=O)[C@H](CO)NC(=O)[C@H](Cc4cnc[nH]4)NC(=O)[C@H](CCCCN)NC3=O)C(=O)N[C@@H](CCCNC(=N)N)C(=O)N[C@@H](CCCCN)C(=O)N[C@@H]([C@@H](C)O)C(=O)N2)NC(=O)[C@H](CCCNC(=N)N)NC(=O)[C@H](CO)NC(=O)[C@H](CCCCN)NC(=O)[C@@H]2CCCN2C1=O` [[Lys4]ShK] and `CC[C@H](C)[C@@H]1NC(=O)[C@@H](NC(=O)[C@H](CO)NC(=O)[C@@H](N)CCCNC(=N)N)CSSC[C@@H](C(=O)O)NC(=O)[C@H]([C@@H](C)O)NC(=O)CNC(=O)[C@@H]2CSSC[C@@H]3NC(=O)[C@H](CCCN)NC(=O)[C@H](Cc4ccccc4)NC(=O)[C@H](C)NC(=O)[C@H]([C@@H](C)O)NC(=O)[C@H](CSSC[C@H](NC(=O)[C@H](Cc4ccccc4)NC(=O)[C@H](CO)NC(=O)[C@H](CC(C)C)NC(=O)[C@H](CCCNC(=N)N)NC(=O)[C@H](Cc4ccc(O)cc4)NC(=O)[C@H](CCCCN)NC(=O)[C@H](CCSC)NC(=O)[C@H](CO)NC(=O)[C@H](Cc4cnc[nH]4)NC(=O)[C@H](CCCCN)NC3=O)C(=O)N[C@@H](CCCNC(=N)N)C(=O)N[C@@H](CCCCN)C(=O)N[C@@H]([C@@H](C)O)C(=O)N2)NC(=O)[C@H](CCCNC(=N)N)NC(=O)[C@H](CO)NC(=O)[C@H](CCCCN)NC(=O)[C@@H]2CCCN2C(=O)[C@H]([C@@H](C)CC)NC(=O)[C@H]([C@@H](C)O)NC(=O)[C@H](CC(=O)O)NC1=O` [[Orn16]ShK] are within 1.5-fold of each other in IC50: 0.153 nM for the first, 0.14 nM for the second.

Compared with `CC[C@H](C)[C@@H]1NC(=O)[C@@H](NC(=O)[C@H](CO)NC(=O)[C@@H](N)CCCNC(=N)N)CSSC[C@@H](C(=O)O)NC(=O)[C@H]([C@@H](C)O)NC(=O)CNC(=O)[C@@H]2CSSC[C@@H]3NC(=O)[C@H](CCC(N)=O)NC(=O)[C@H](Cc4ccccc4)NC(=O)[C@H](C)NC(=O)[C@H]([C@@H](C)O)NC(=O)[C@H](CSSC[C@H](NC(=O)[C@H](Cc4ccccc4)NC(=O)[C@H](CO)NC(=O)[C@H](CC(C)C)NC(=O)[C@H](CCCCN)NC(=O)[C@H](Cc4ccc(O)cc4)NC(=O)[C@H](CCCCN)NC(=O)[C@H](CCSC)NC(=O)[C@H](CO)NC(=O)[C@H](Cc4cnc[nH]4)NC(=O)[C@H](CCCCN)NC3=O)C(=O)N[C@@H](CCCNC(=N)N)C(=O)N[C@@H](CCCCN)C(=O)N[C@@H]([C@@H](C)O)C(=O)N2)NC(=O)[C@H](CCCNC(=N)N)NC(=O)[C@H](CO)NC(=O)[C@H](CCCCN)NC(=O)[C@@H]2CCCN2C(=O)[C@H]([C@@H](C)CC)NC(=O)[C@H]([C@@H](C)O)NC(=O)[C@H](CC(=O)O)NC1=O` [[Lys24]ShK], `CC[C@H](C)[C@@H]1NC(=O)[C@@H](NC(=O)[C@H](CO)NC(=O)[C@@H](N)CCCNC(=N)N)CSSC[C@@H](C(=O)O)NC(=O)[C@H]([C@@H](C)O)NC(=O)CNC(=O)[C@@H]2CSSC[C@@H]3NC(=O)[C@H](CCC(N)=O)NC(=O)[C@H](Cc4ccccc4)NC(=O)[C@H](C)NC(=O)[C@H]([C@@H](C)O)NC(=O)[C@H](CSSC[C@H](NC(=O)[C@H](Cc4ccccc4)NC(=O)[C@H](CO)NC(=O)[C@H](CC(C)C)NC(=O)[C@H](CCCNC(=N)N)NC(=O)[C@H](Cc4ccc(O)cc4)NC(=O)[C@H](CCCCN)NC(=O)[C@H](CCSC)NC(=O)[C@H](CO)NC(=O)[C@H](Cc4cnc[nH]4)NC(=O)[C@H](CCCCN)NC3=O)C(=O)N[C@@H](CCCNC(=N)N)C(=O)N[C@@H](CCCCN)C(=O)N[C@@H]([C@@H](C)O)C(=O)N2)NC(=O)[C@H](C)NC(=O)[C@H](CO)NC(=O)[C@H](CCCCN)NC(=O)[C@@H]2CCCN2C(=O)[C@H]([C@@H](C)CC)NC(=O)[C@H]([C@@H](C)O)NC(=O)[C@H](CC(=O)O)NC1=O` [[Ala11]ShK] is 6.4-fold higher in IC50: 0.067 nM for the first, 0.431 nM for the second. The first is the more potent here.

Compared with `CC[C@H](C)[C@@H]1NC(=O)[C@@H](NC(=O)[C@H](CO)NC(=O)[C@@H](N)CCCNC(=N)N)CSSC[C@@H](C(=O)O)NC(=O)[C@H]([C@@H](C)O)NC(=O)CNC(=O)[C@@H]2CSSC[C@@H]3NC(=O)[C@H](CCC(N)=O)NC(=O)[C@H](Cc4ccccc4)NC(=O)[C@H](C)NC(=O)[C@H]([C@@H](C)O)NC(=O)[C@H](CSSC[C@H](NC(=O)[C@H](Cc4ccccc4)NC(=O)[C@H](CO)NC(=O)[C@H](CC(C)C)NC(=O)[C@H](CCCNC(=N)N)NC(=O)[C@H](Cc4ccc(O)cc4)NC(=O)[C@H](CCCCN)NC(=O)[C@H](CCSC)NC(=O)[C@H](CO)NC(=O)[C@H](CCC(=O)O)NC(=O)[C@H](CCCCN)NC3=O)C(=O)N[C@@H](CCCNC(=N)N)C(=O)N[C@@H](CCCCN)C(=O)N[C@@H]([C@@H](C)O)C(=O)N2)NC(=O)[C@H](CCCNC(=N)N)NC(=O)[C@H](CO)NC(=O)[C@H](CCCCN)NC(=O)[C@@H]2CCCN2C(=O)[C@H]([C@@H](C)CC)NC(=O)[C@H]([C@@H](C)O)NC(=O)[C@H](CC(=O)O)NC1=O` [[Glu19]ShK], `CC[C@H](C)[C@@H]1NC(=O)[C@@H](NC(=O)[C@H](CO)NC(=O)[C@@H](N)CCCNC(=N)N)CSSC[C@@H](C(=O)O)NC(=O)[C@H]([C@@H](C)O)NC(=O)[C@H](CCC(=O)O)NC(=O)[C@@H]2CSSC[C@@H]3NC(=O)[C@H](CCC(N)=O)NC(=O)[C@H](Cc4ccccc4)NC(=O)[C@H](C)NC(=O)[C@H]([C@@H](C)O)NC(=O)[C@H](CSSC[C@H](NC(=O)[C@H](Cc4ccccc4)NC(=O)[C@H](CO)NC(=O)[C@H](CC(C)C)NC(=O)[C@H](CCCNC(=N)N)NC(=O)[C@H](Cc4ccc(O)cc4)NC(=O)[C@H](CCCCN)NC(=O)[C@H](CCSC)NC(=O)[C@H](CO)NC(=O)[C@H](Cc4cnc[nH]4)NC(=O)[C@H](CCCCN)NC3=O)C(=O)N[C@@H](CCCNC(=N)N)C(=O)N[C@@H](CCCCN)C(=O)N[C@@H]([C@@H](C)O)C(=O)N2)NC(=O)[C@H](CCCNC(=N)N)NC(=O)[C@H](CO)NC(=O)[C@H](CCCCN)NC(=O)[C@@H]2CCCN2C(=O)[C@H]([C@@H](C)CC)NC(=O)[C@H]([C@@H](C)O)NC(=O)[C@H](CC(=O)O)NC1=O` [[Glu33]ShK] is 4.3-fold lower in IC50: 0.256 nM for the first, 0.06 nM for the second.

Compared with `CC[C@H](C)[C@@H]1NC(=O)[C@@H](NC(=O)[C@H](CO)NC(=O)[C@@H](N)CCCNC(=N)N)CSSC[C@@H](C(=O)O)NC(=O)[C@H]([C@@H](C)O)NC(=O)CNC(=O)[C@@H]2CSSC[C@@H]3NC(=O)[C@H](CCC(N)=O)NC(=O)[C@H](Cc4ccccc4)NC(=O)[C@H](C)NC(=O)[C@H]([C@@H](C)O)NC(=O)[C@H](CSSC[C@H](NC(=O)[C@H](Cc4ccccc4)NC(=O)[C@H](CO)NC(=O)[C@H](CC(C)C)NC(=O)[C@H](CCCNC(=N)N)NC(=O)[C@H](Cc4ccc(O)cc4)NC(=O)[C@H](CCCCN)NC(=O)[C@H](CCSC)NC(=O)[C@H](C)NC(=O)[C@H](Cc4cnc[nH]4)NC(=O)[C@H](CCCCN)NC3=O)C(=O)N[C@@H](CCCNC(=N)N)C(=O)N[C@@H](CCCCN)C(=O)N[C@@H]([C@@H](C)O)C(=O)N2)NC(=O)[C@H](CCCNC(=N)N)NC(=O)[C@H](CO)NC(=O)[C@H](CCCCN)NC(=O)[C@@H]2CCCN2C(=O)[C@H]([C@@H](C)CC)NC(=O)[C@H]([C@@H](C)O)NC(=O)[C@H](CC(=O)O)NC1=O` [[Ala20]ShK], `CCCC[C@@H]1NC(=O)[C@H](CO)NC(=O)[C@H](Cc2cnc[nH]2)NC(=O)[C@H](CCCCN)NC(=O)[C@@H]2CSSC[C@@H]3NC(=O)[C@H]([C@@H](C)O)NC(=O)[C@H](CCCCN)NC(=O)[C@H](CCCNC(=N)N)NC(=O)[C@H](CSSC[C@H](NC(=O)[C@H](CCCNC(=N)N)NC(=O)[C@H](CO)NC(=O)[C@H](CCCCN)NC(=O)[C@@H]4CCCN4C(=O)[C@H]([C@@H](C)CC)NC(=O)[C@H]([C@@H](C)O)NC(=O)[C@H](CC(=O)O)NC(=O)[C@H]([C@@H](C)CC)NC(=O)[C@@H](NC(=O)[C@H](CO)NC(=O)[C@@H](N)CCCNC(=N)N)CSSC[C@@H](C(=O)O)NC(=O)[C@H]([C@@H](C)O)NC(=O)CNC3=O)C(=O)N[C@@H]([C@@H](C)O)C(=O)N[C@@H](C)C(=O)N[C@@H](Cc3ccccc3)C(=O)N[C@@H](CCC(N)=O)C(=O)N2)NC(=O)[C@H](Cc2ccccc2)NC(=O)[C@H](CO)NC(=O)[C@H](CC(C)C)NC(=O)[C@H](CCCNC(=N)N)NC(=O)[C@H](Cc2ccc(O)cc2)NC(=O)[C@H](CCCCN)NC1=O` [[N1e21]ShK] is 4.9-fold lower in IC50: 0.195 nM for the first, 0.04 nM for the second.

In the case of `CC[C@H](C)[C@@H]1NC(=O)[C@@H](NC(=O)[C@H](CO)NC(=O)[C@@H](N)CCCNC(=N)N)CSSC[C@@H](C(=O)O)NC(=O)[C@H]([C@@H](C)O)NC(=O)CNC(=O)[C@@H]2CSSC[C@@H]3NC(=O)[C@H](CCC(N)=O)NC(=O)[C@H](Cc4ccccc4)NC(=O)[C@H](C)NC(=O)[C@H](Cc4cccc5ccccc45)NC(=O)[C@H](CSSC[C@H](NC(=O)[C@H](Cc4ccccc4)NC(=O)[C@H](CO)NC(=O)[C@H](CC(C)C)NC(=O)[C@H](CCCNC(=N)N)NC(=O)[C@H](Cc4ccc(O)cc4)NC(=O)[C@H](CCCCN)NC(=O)[C@H](CCSC)NC(=O)[C@H](CO)NC(=O)[C@H](Cc4cnc[nH]4)NC(=O)[C@H](CCCCN)NC3=O)C(=O)N[C@@H](CCCNC(=N)N)C(=O)N[C@@H](CCCCN)C(=O)N[C@@H]([C@@H](C)O)C(=O)N2)NC(=O)[C@H](CCCNC(=N)N)NC(=O)[C@H](CO)NC(=O)[C@H](CCCCN)NC(=O)[C@@H]2CCCN2C(=O)[C@H]([C@@H](C)CC)NC(=O)[C@H]([C@@H](C)O)NC(=O)[C@H](CC(=O)O)NC1=O` [[1-Nal13]ShK], the IC50 is reported as 0.235 nM.
